Literature values, collected in patent US20190343190A1, “MATERIALS INCLUDING POLYMERIC FIBERS INCORPORATING MICROCAPSULES OR NANOCAPSULES INCLUDING AN ESSENTIAL OIL” (President and Fellows of Harvard College, priority 2016, published 2019).

Details: in vivo; cited from earlier work

SMILES: C=Cc1ccccc1 [styrene]
- Dose at which 50% of the population died: 0.2 mg per kilogram body weight per day
